Data from PubChem BioAssay AID1458 (National Center for Advancing Translational Sciences (NCATS), 2008).
“And” between values parts separate entries of the source, which are not always exact repeats. Equal entries are not always repeated. Only a part is listed here, and it is no random draw. Inconclusive results are not listed. The source made the active and inactive calls. Calls come from the whole dose curve; as a rule, active = well fitted activation curve with a large enough effect; inconclusive = small, poorly fitted or top-dose-only effect; inactive = no such curve, though single readings can be large or run the other way.

Experiment: qHTS Assay for Enhancers of SMN2 Splice Variant Expression; note: % of control where 0% means no effect; nearly all actives have a fitted effect of over 55% in size
Conditions: HEK293 SMN2-luciferase splicing reporter, luminescence, 30-36 h; at 46.1 µM (top of the series)

Structure (SMILES)	activity change, positive = activation
CN(CCCl)CCCl	inactive: -1.97% and inactive: -5.59%
O=[N+]([O-])C(Cl)(Cl)Cl	inactive: 6.86%
